Test [1] has as its system Baf3 EML4-ALK V1^G1202R/L1196M cells. The following applies: read-out: BaF3 EML4-ALK^G1102R/L1196M, IC50; 3 days incubation, Cell-Titer Glo.
Another test concerns the target His-ALK^G1202R/L1196M (Homo sapiens, UniProt Q9UM73, G1202R/L1196M). As to the kind of experiment: ALK G1202R/L1196M compound mutant kinase inhibitory activity assay (HTRF). The following applies: read-out: ALK^G1202R/L1196M Enzyme, IC50, ATP 4 µM, enzyme 0.5 nM, 1 hour at 23 °C. Background: TR-FRET usually uses a lanthanide donor and a delayed reading to cut background.

Sequences of proteins named here, by UniProt entry; tags and fusion partners are left off. Residues count along the entry.
UniProt Q9UM73, 19-1620 L1196M/G1202R limits assumed: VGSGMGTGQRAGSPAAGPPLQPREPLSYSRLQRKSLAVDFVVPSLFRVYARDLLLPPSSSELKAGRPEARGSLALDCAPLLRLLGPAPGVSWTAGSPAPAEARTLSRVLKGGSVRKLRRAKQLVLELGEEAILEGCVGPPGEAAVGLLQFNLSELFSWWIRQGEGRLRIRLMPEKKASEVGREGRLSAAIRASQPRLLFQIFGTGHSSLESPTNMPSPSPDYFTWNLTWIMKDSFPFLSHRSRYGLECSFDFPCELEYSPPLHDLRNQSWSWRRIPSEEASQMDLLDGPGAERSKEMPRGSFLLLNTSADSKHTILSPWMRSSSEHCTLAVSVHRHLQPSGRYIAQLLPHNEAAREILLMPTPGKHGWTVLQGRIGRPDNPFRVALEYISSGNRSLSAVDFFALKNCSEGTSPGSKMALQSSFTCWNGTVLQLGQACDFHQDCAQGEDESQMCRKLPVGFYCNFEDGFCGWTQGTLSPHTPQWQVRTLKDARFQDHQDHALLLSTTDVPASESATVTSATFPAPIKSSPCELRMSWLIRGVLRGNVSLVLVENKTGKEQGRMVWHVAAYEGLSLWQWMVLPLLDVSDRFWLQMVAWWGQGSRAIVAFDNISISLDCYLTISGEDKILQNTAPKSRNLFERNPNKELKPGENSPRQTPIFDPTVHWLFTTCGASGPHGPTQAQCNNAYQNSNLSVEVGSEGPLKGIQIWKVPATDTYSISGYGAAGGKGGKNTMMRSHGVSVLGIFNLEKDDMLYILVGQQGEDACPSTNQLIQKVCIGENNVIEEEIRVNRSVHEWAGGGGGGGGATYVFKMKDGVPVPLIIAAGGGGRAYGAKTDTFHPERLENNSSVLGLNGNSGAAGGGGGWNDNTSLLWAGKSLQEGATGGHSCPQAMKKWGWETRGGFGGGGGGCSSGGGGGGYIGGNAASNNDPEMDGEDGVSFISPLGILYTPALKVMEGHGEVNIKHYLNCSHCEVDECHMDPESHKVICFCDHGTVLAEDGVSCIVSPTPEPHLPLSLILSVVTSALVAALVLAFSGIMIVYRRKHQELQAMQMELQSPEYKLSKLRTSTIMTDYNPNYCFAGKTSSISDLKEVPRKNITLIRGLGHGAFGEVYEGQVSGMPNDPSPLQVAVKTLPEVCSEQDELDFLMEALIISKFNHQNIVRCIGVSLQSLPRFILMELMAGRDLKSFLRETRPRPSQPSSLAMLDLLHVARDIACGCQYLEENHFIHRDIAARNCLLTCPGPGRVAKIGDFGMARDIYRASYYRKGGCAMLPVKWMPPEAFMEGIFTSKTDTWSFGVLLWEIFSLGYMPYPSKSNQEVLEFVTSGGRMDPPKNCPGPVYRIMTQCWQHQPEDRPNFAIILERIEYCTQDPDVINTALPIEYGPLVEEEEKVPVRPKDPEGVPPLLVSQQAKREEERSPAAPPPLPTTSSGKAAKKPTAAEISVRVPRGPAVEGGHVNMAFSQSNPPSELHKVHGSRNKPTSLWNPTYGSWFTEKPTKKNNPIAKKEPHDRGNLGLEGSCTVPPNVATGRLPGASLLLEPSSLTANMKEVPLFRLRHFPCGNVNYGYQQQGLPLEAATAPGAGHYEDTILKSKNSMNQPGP

This is an account of results in patent publication EP4831180A1, “NOVEL KINASE INHIBITOR” (dated 2026).

As to `C#Cc1nn(CC)c2c1Cc1sc(C)nc1-c1ccc(F)cc1[C@@H](C)Oc1cc-2cnc1N`, the IC50 in test [1] is below 10 nM; on His-ALK^G1202R/L1196M, below 5 nM. The matching figures for `CCn1nc(C#Cc2csc(N)n2)c2c1-c1cnc(N)c(c1)O[C@H](C)c1cc(F)ccc1-c1nn(C)cc1C2`: below 10 nM and below 5 nM. As for `C#Cc1nn(CC)c2c1Cc1cc(C)cnc1-c1ccc(F)cc1[C@@H](C)Oc1cc-2cnc1N`, the results for the IC50 (in test [1]; on His-ALK^G1202R/L1196M) were below 10 nM and below 5 nM, respectively. Consider `CCn1nc(C#CC2(C)CCOCC2)c2c1-c1cnc(N)c(c1)O[C@H](C)c1cc(F)ccc1-c1nn(C)cc1C2`, for which the results for the IC50 (in test [1]; on His-ALK^G1202R/L1196M) were below 10 nM and below 5 nM, respectively. `CCn1nc(C#Cc2cccn(C)c2=O)c2c1-c1cnc(N)c(c1)O[C@H](C)c1cc(F)ccc1-c1nn(C)cc1C2`: the IC50 was below 10 nM in test [1] and below 5 nM at His-ALK^G1202R/L1196M. As for `CCn1nc(C#Cc2ccn(C)c(=O)c2)c2c1-c1cnc(N)c(c1)O[C@H](C)c1cc(F)ccc1-c1nn(C)cc1C2`, the IC50 in test [1] was below 10 nM; on His-ALK^G1202R/L1196M, below 5 nM. The matching figures for `CCn1nc(C#CC2CCCN2)c2c1-c1cnc(N)c(c1)O[C@H](C)c1cc(F)ccc1-c1nn(C)cc1C2` (some centres unmarked): below 10 nM and below 5 nM. As to `CCn1nc(N=S2(=O)CCCC2)c2c1-c1cnc(N)c(c1)O[C@H](C)c1cc(F)ccc1-c1nn(C)cc1C2`, the IC50 in test [1] was below 10 nM; at His-ALK^G1202R/L1196M it was below 5 nM.

Take `CCn1nc(C#CCN(C)C)c2c1-c1cnc(N)c(c1)O[C@H](C)c1cc(F)ccc1-c1nn(C)nc1C2`: the IC50 in test [1] is below 10 nM; on His-ALK^G1202R/L1196M it was below 5 nM. The matching figures for `[2H]C([2H])([2H])n1cc2c(n1)-c1ccc(F)cc1[C@@H](C)Oc1cc(cnc1N)-c1c(c(C#C)nn1CC1CC1)C2`: below 10 nM and below 5 nM. For the compound `CCn1nc(C#Cc2cncn2C2CC2)c2c1-c1cnc(N)c(c1)O[C@H](C)c1cc(F)ccc1-c1nn(C)cc1C2`, the results for the IC50 (in test [1]; on His-ALK^G1202R/L1196M) were below 10 nM and below 5 nM, respectively. The matching figures for “(19R)-3-ethyl-16-fluoro-10,19-dimethyl-5-((1-methyl-1,2,4-triazol-,3-yl)et hynyl)-20-oxa-3,4,10,11,23-pentaazapentacyclo[19.3. 1.0^2,6.0^8,12.0^13,18]pentacosa-1(24),2(6),4,8 (9),11,13(18),14,16,21(25),22-decaen-22-amine”: below 10 nM and below 5 nM. Take `CCn1nc(C#CC(=O)N2CC(F)(F)C2)c2c1-c1cnc(N)c(c1)O[C@H](C)c1cc(F)ccc1-c1nn(C)cc1C2`: the IC50 was below 10 nM in test [1] and below 5 nM at His-ALK^G1202R/L1196M. `CCn1nc(C#Cc2ccncn2)c2c1-c1cnc(N)c(c1)O[C@H](C)c1cc(F)ccc1-c1nn(C)cc1C2`: at His-ALK^G1202R/L1196M, the IC50 was below 5 nM. With `C#Cc1nn(CCOC)c2c1Cc1cn(C)nc1-c1ccc(F)cc1[C@@H](C)Oc1cc-2cnc1N`, the IC50 on His-ALK^G1202R/L1196M is below 5 nM. Consider `CCn1nc(C#CC2(O)COC2)c2c1-c1cnc(N)c(c1)O[C@H](C)c1cc(F)ccc1-c1nn(C)nc1C2`, for which the IC50 at His-ALK^G1202R/L1196M was below 5 nM. The same measure, in the same setting: the figure for `CCn1nc(C#Cc2ccc(Cl)cc2)c2c1-c1cnc(N)c(c1)O[C@H](C)c1cc(F)ccc1-c1nn(C)cc1C2` is below 5 nM; for `CCn1nc(C#CC2CCCOC2)c2c1-c1cnc(N)c(c1)O[C@H](C)c1cc(F)ccc1-c1nn(C)cc1C2` (some centres unmarked) it is below 5 nM; for `CCn1nc(C#Cc2cn(C(F)F)cn2)c2c1-c1cnc(N)c(c1)O[C@H](C)c1cc(F)ccc1-c1nn(C)cc1C2` it is below 5 nM. As for `CCn1nc(C#Cc2cccnc2OC)c2c1-c1cnc(N)c(c1)O[C@H](C)c1cc(F)ccc1-c1nn(C)cc1C2`, the IC50 on His-ALK^G1202R/L1196M was below 5 nM.

For the compound `CCn1nc(C#CC(N)=O)c2c1-c1cnc(N)c(c1)O[C@H](C)c1cc(F)ccc1-c1nn(C)nc1C2`, the IC50 on His-ALK^G1202R/L1196M was below 5 nM.

Consider `CCn1nc(C#Cc2ccc(OC)cn2)c2c1-c1cnc(N)c(c1)O[C@H](C)c1cc(F)ccc1-c1nn(C)cc1C2`, for which the IC50 on His-ALK^G1202R/L1196M was below 5 nM. The same measure, in the same setting: next, `CCn1nc(C#Cc2cncn2C2COC2)c2c1-c1cnc(N)c(c1)O[C@H](C)c1cc(F)ccc1-c1nn(C)cc1C2`: below 5 nM; `CCn1nc(C#CC(=O)NC)c2c1-c1cnc(N)c(c1)O[C@H](C)c1cc(F)ccc1-c1nn(C)cc1C2`: below 5 nM. Same read-out and setting: the figure for `CCn1nc(C#Cc2nnc(C)o2)c2c1-c1cnc(N)c(c1)O[C@H](C)c1cc(F)ccc1-c1nn(C)cc1C2` is below 5 nM; for `CCn1nc(C#CC2CNC2)c2c1-c1cnc(N)c(c1)O[C@H](C)c1cc(F)ccc1-c1nn(C)cc1C2` it is below 5 nM. The same measure, in the same setting: the figure for `CCn1nc(C#Cc2cccc(=O)[nH]2)c2c1-c1cnc(N)c(c1)O[C@H](C)c1cc(F)ccc1-c1nn(C)cc1C2` is below 5 nM. On to “(19R)-3-ethyl-16-fluoro-10,19-dimethyl-5-((1-(oxetan-3-yl)pyrazol-4-yl)et hynyl)-20-oxa-3,4,10,11,23-pentaazapentacyclo[19.3.1.0^8,12.0^13,18.0^2,6]pentacosa-1(25),2(6),4,8 (9),11,13(18),14,16,21(22),23-decaen-22-amine”, for which, at His-ALK^G1202R/L1196M, the IC50 is below 5 nM. On the same count and under the same terms, next, `CCn1nc(N=S2(=O)CC3(CCC3)C2)c2c1-c1cnc(N)c(c1)O[C@H](C)c1cc(F)ccc1-c1nn(C)cc1C2`: below 5 nM; `CCn1nc(C#Cc2cnc(C(C)(C)O)nc2)c2c1-c1cnc(N)c(c1)O[C@H](C)c1cc(F)ccc1-c1nn(C)cc1C2`: below 5 nM. Regarding `CCn1nc(C#CCC2(O)COC2)c2c1-c1cnc(N)c(c1)O[C@H](C)c1cc(F)ccc1-c1nn(C)cc1C2`, on His-ALK^G1202R/L1196M, the IC50 is below 5 nM. For `CCn1nc(C#CC2CN(C)CCO2)c2c1-c1cnc(N)c(c1)O[C@H](C)c1cc(F)ccc1-c1nn(C)cc1C2` (some centres unmarked), the IC50 at His-ALK^G1202R/L1196M is below 5 nM.

For the compound `CCn1nc(C#Cc2cnn(C)n2)c2c1-c1cnc(N)c(c1)O[C@H](C)c1cc(F)ccc1-c1nn(C)cc1C2`, the IC50 on His-ALK^G1202R/L1196M was below 5 nM. Take `CCn1nc(C#Cc2cccc(N)n2)c2c1-c1cnc(N)c(c1)O[C@H](C)c1cc(F)ccc1-c1nn(C)cc1C2`: the IC50 on His-ALK^G1202R/L1196M was below 5 nM. On the same count and under the same terms, next, `C=Cc1nn(CC)c2c1Cc1nn(C)nc1-c1ccc(F)cc1[C@@H](C)Oc1cc-2cnc1N`: below 5 nM. Consider `CCn1nc(N=S(C)(=O)C2CC2)c2c1-c1cnc(N)c(c1)O[C@H](C)c1cc(F)ccc1-c1nn(C)cc1C2` (some centres unmarked), for which the IC50 on His-ALK^G1202R/L1196M is below 5 nM. Still for that read-out and setting: the figure for `C=CCc1nn(CC)c2c1Cc1cn(C(F)F)nc1-c1ccc(F)cc1[C@@H](C)Oc1cc-2cnc1N` is below 5 nM. In the case of `CCn1nc(C#Cc2ccc(C(C)(C)O)cc2)c2c1-c1cnc(N)c(c1)O[C@H](C)c1cc(F)ccc1-c1nn(C)cc1C2`, at His-ALK^G1202R/L1196M, the IC50 is below 5 nM.

Take `CCn1nc(C#CN=S2(=O)CCCCC2)c2c1-c1cnc(N)c(c1)O[C@H](C)c1cc(F)ccc1-c1nn(C)cc1C2`: at His-ALK^G1202R/L1196M, the IC50 was below 5 nM.

`CCn1nc(C#CC(C)(C)S(C)(=O)=O)c2c1-c1cnc(N)c(c1)O[C@H](C)c1cc(F)ccc1-c1nn(C)cc1C2`: the IC50 at His-ALK^G1202R/L1196M was below 5 nM. Still for that read-out and setting: next, `CCn1nc(C#Cc2cccc(=O)n2C)c2c1-c1cnc(N)c(c1)O[C@H](C)c1cc(F)ccc1-c1nn(C)cc1C2`: below 5 nM; `CCn1nc(C#Cc2cnc3cccnn23)c2c1-c1cnc(N)c(c1)O[C@H](C)c1cc(F)ccc1-c1nn(C)cc1C2`: below 5 nM; `C#Cc1nn(CC)c2c1Cn1ccnc1-c1ccc(F)cc1[C@@H](C)Oc1cc-2cnc1N`: below 5 nM. On the same count and under the same terms, the figure for `CCn1nc(C#CC2(O)CCCCC2)c2c1-c1cnc(N)c(c1)O[C@H](C)c1cc(F)ccc1-c1nn(C)cc1C2` is below 5 nM; for `C#Cc1nn(C(F)F)c2c1Cc1cn(C)nc1-c1ccc(F)cc1[C@@H](C)Oc1cc-2cnc1N` it is below 5 nM. `CCn1nc(C#CC2CC(F)(F)C2)c2c1-c1cnc(N)c(c1)O[C@H](C)c1cc(F)ccc1-c1nn(C)cc1C2`: the IC50 at His-ALK^G1202R/L1196M is below 5 nM. Still for that read-out and setting: the figure for `CCn1nc(C#Cc2ccc(OC)nc2)c2c1-c1cnc(N)c(c1)O[C@H](C)c1cc(F)ccc1-c1nn(C)cc1C2` is below 5 nM; for `CCn1nc(C#Cc2cccnc2N)c2c1-c1cnc(N)c(c1)O[C@H](C)c1cc(F)ccc1-c1nn(C)cc1C2` it is below 5 nM; for `CCn1nc(C#Cc2scnc2C)c2c1-c1cnc(N)c(c1)O[C@H](C)c1cc(F)ccc1-c1nn(C)cc1C2` it is below 5 nM. As to `C=CCc1nn(CC)c2c1Cc1cn(C)nc1-c1ccc(F)cc1[C@@H](C)Oc1cc-2cnc1N`, the IC50 at His-ALK^G1202R/L1196M was below 5 nM. On to `CCn1nc(C#Cc2ccc(=O)n(CC(F)(F)F)c2)c2c1-c1cnc(N)c(c1)O[C@H](C)c1cc(F)ccc1-c1nn(C)cc1C2`, for which the IC50 on His-ALK^G1202R/L1196M was below 5 nM. The same measure, in the same setting: the figure for `CCn1nc(C#Cc2cccn2C)c2c1-c1cnc(N)c(c1)O[C@H](C)c1cc(F)ccc1-c1nn(C)cc1C2` is below 5 nM; for `CCn1nc(C#Cc2cn(C)c(C)n2)c2c1-c1cnc(N)c(c1)O[C@H](C)c1cc(F)ccc1-c1nn(C)cc1C2` it is below 5 nM.

For the compound `CCn1nc(C#CC(=O)N(C)C)c2c1-c1cnc(N)c(c1)O[C@H](C)c1cc(F)ccc1-c1nn(C)cc1C2`, at His-ALK^G1202R/L1196M, the IC50 was below 5 nM. For the compound `CCn1nc(C#Cc2cnn(C(F)(F)F)c2)c2c1-c1cnc(N)c(c1)O[C@H](C)c1cc(F)ccc1-c1nn(C)cc1C2`, the IC50 at His-ALK^G1202R/L1196M was below 5 nM. Same read-out and setting: the figure for `CCn1nc(C#CC(C)C)c2c1-c1cnc(N)c(c1)O[C@H](C)c1cc(F)ccc1-c1nn(C)cc1C2` is below 5 nM; for `CCn1nc(C#CCN2CCCCC2)c2c1-c1cnc(N)c(c1)O[C@H](C)c1cc(F)ccc1-c1nn(C)cc1C2` it is below 5 nM; for `CCn1nc(C#CCOC)c2c1-c1cnc(N)c(c1)O[C@H](C)c1cc(F)ccc1-c1nn(C)cc1C2` it is below 5 nM. `CCn1nc(C#Cc2cncn2CC(F)(F)F)c2c1-c1cnc(N)c(c1)O[C@H](C)c1cc(F)ccc1-c1nn(C)cc1C2`: the IC50 at His-ALK^G1202R/L1196M is below 5 nM. Regarding `CCn1nc(C#Cc2ccc(=O)[nH]c2)c2c1-c1cnc(N)c(c1)O[C@H](C)c1cc(F)ccc1-c1nn(C)cc1C2`, the IC50 at His-ALK^G1202R/L1196M is below 5 nM. As for `CCn1nc(C#Cc2ncccn2)c2c1-c1cnc(N)c(c1)O[C@H](C)c1cc(F)ccc1-c1nn(C)cc1C2`, the IC50 at His-ALK^G1202R/L1196M is below 5 nM.
